Results from US20260356830A1, “COMPOUNDS FOR MODULATING RET PROTEIN” (Bristol-Myers Squibb Company, priority 2022, published 2026).

Protein sequences, listed by entry. Tags and fused reporters are not part of them.
UniProt P07949, whole entry, looked up: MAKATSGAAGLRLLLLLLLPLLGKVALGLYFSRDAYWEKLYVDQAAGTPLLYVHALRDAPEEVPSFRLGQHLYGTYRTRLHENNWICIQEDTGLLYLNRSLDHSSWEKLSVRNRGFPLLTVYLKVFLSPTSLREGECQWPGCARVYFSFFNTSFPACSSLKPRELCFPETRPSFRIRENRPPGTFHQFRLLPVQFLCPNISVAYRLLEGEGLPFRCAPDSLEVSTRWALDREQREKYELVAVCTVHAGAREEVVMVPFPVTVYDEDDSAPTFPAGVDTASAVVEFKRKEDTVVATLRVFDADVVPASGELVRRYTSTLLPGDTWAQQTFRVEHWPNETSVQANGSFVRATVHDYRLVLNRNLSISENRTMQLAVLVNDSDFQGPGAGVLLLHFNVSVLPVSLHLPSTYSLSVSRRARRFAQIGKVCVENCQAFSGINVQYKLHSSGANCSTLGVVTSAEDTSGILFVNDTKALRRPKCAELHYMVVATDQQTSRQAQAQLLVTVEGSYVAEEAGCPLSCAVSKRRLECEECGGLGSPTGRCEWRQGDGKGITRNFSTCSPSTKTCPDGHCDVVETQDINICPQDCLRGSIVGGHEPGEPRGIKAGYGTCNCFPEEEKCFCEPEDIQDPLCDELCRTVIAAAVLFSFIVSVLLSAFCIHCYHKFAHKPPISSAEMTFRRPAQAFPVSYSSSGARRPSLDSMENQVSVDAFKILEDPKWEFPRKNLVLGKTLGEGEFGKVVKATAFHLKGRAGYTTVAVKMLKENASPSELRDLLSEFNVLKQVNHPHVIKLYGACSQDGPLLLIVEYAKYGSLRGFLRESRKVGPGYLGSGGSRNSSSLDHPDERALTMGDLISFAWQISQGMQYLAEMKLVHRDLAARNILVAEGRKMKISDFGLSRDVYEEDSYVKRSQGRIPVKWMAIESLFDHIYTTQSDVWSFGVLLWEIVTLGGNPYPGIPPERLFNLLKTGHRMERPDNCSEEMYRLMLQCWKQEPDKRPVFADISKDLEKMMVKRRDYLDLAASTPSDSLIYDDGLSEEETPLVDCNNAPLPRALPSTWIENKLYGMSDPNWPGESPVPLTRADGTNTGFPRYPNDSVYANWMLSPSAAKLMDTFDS
UniProt Q16204, whole entry, looked up: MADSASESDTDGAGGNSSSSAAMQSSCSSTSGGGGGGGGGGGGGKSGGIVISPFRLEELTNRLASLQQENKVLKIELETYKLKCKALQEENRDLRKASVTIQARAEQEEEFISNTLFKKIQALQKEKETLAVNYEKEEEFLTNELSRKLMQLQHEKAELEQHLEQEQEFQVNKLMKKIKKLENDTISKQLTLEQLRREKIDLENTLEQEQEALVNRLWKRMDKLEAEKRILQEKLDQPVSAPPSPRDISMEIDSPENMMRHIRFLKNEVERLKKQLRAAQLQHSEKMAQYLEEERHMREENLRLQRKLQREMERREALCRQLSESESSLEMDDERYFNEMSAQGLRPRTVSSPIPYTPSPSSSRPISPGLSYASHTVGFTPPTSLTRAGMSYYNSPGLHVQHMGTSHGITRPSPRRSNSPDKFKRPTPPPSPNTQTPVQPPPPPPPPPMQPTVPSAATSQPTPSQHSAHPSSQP
UniProt Q96SW2, whole entry, looked up: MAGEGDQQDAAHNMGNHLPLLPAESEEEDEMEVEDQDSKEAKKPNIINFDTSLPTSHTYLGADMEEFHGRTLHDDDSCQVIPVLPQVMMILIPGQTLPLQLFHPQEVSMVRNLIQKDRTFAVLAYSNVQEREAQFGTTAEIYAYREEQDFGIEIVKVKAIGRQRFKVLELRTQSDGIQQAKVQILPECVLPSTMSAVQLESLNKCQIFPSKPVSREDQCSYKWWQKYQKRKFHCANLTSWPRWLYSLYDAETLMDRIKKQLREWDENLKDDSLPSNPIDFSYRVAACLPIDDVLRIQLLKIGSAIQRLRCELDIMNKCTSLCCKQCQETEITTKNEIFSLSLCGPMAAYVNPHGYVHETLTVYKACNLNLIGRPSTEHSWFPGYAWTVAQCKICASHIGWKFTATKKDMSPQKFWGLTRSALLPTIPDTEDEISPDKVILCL

Target: CCDC6-RET (Homo sapiens, UniProt P07949+Q16204+Q96SW2)
Experiment: Cellular RET degradation, AlphaLISA, TPC-1 cell line
Type: cell-based
Conditions: for Cell Density TPC-1/CCDC6-RET Ymax %: maximum degradation, 24 hrs; for DC50: read-out: Cell Density TPC-1/CCDC6-RET DC50, half-maximal degradation concentration, 24 hrs

Row | Cell Density TPC-1/CCDC6-RET Ymax % | DC50 | SMILES
1 | ** (Y>90%) | 10 to 100 nM | CCOc1cc(-c2ccc(N3CCC(CN4CCC5(CCC(CC(=O)N6CCC(c7ccc8c(c7)C(=O)N(C7CCC(=O)NC7=O)C8)CC6)CC5)CC4)(NC(=O)c4cc(F)ccc4F)CC3)nc2)c2c(C#N)cnn2c1 (stereo not drawn)
2 | ** (Y>90%) | 2 to 10 nM | CCOc1cc(-c2ccc(N3CCC(CN4CCN(C(=O)CCCCCCN5CCN(c6ccc7c(c6)CN(C6CCC(=O)NC6=O)C7=O)CC5)CC4)(NC(=O)C4CC4)CC3)nc2)c2c(C#N)cnn2c1 (stereo not drawn)
3 | * (60%<Y≤90%) | 2 to 10 nM | CCOc1cc(-c2ccc(N3CCC(CN(C(=O)CCCCCCN4CCC(c5ccc6c(c5)CN(C5CCC(=O)NC5=O)C6=O)CC4)C(C)C)(NC(=O)c4cc(F)ccc4F)CC3)nc2)c2c(C#N)cnn2c1 (stereo not drawn)
